Test results published in paper PMC4279401 (Oncotarget, 2014).

Tested on: H3K79 methylation
Experiment: Western blot of histone methylation in MDA-MB231
Format: cell-based, Human
Conditions: in words

CC(C)N(CCCNC(=O)Nc1ccc(C(C)(C)C)cc1)CC1OC(n2cnc3c(N)ncnc32)C(O)C1O (stereo not shown) [Compound 2, SYC-522]
effect on H3K79 methylation: only inhibited H3K79 methylation
